The values that follow come from patent US20080108645A1, “Dihydrotetrabenazines And Pharmaceutical Compositions Containing Them” (CAMBRIDGE LABORATORIES, (IRELAND), LTD., priority 2004, published 2008).

Sequences of proteins named here, by UniProt entry; tags and fusion partners are left off.
UniProt Q01827, whole entry: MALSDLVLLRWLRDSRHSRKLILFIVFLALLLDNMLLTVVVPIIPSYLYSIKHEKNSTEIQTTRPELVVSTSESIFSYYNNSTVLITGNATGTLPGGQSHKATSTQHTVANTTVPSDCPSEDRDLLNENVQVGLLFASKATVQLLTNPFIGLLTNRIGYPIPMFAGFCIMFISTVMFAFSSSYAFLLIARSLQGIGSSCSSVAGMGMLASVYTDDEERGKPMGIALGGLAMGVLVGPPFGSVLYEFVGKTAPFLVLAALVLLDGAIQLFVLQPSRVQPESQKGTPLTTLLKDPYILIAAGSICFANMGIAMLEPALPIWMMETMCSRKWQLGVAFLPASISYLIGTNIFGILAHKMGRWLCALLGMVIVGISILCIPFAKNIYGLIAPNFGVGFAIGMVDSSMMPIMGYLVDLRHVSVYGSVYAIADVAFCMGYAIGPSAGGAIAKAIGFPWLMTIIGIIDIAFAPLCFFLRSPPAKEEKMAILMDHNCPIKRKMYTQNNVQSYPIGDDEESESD

The experiment addresses T1, VMAT-2 (Rattus norvegicus, UniProt Q01827).
T1 construct: An adult rat striatal vesicular preparation was then prepared; from tissue; host or cells: adult Wistar rat striatum, vesicular membranes
Put plainly: [3H] Dihydrotetrabenazine binding assay for VMAT-2, adult rat striatal vesicular membranes. The note with it: for nH: Hill slope of competition curve.

As to `COc1cc2c(cc1OC)[C@H]1C[C@H](O)[C@@H](CC(C)C)CN1CC2` (single isomer, unassigned) [Isomer A, 3,11b-cis-dihydrotetrabenazine], the nH was −0.40 ± 0.08.

On to `COc1cc2c(cc1OC)[C@H]1C[C@@H](O)[C@@H](CC(C)C)CN1CC2` (single isomer, unassigned) [Isomer D, 3,11b-cis-dihydrotetrabenazine], for which the nH is −0.72 ± 0.05.

`COc1cc2c(cc1OC)[C@H]1C[C@@H](O)[C@@H](CC(C)C)CN1CC2` (single isomer, unassigned) [Isomer C, 3,11b-cis-dihydrotetrabenazine] displayed a nH of −0.77 ± 0.07.

Regarding `COc1cc2c(cc1OC)[C@H]1C[C@H](O)[C@@H](CC(C)C)CN1CC2` (single isomer, unassigned) [Isomer B, 3,11b-cis-dihydrotetrabenazine], the nH is −0.52 ± 0.06. Moreover, the “% sites, two-site fit” value (higher-affinity site) stood at 26%. Also, for the setting “lower-affinity site”, the “% sites, two-site fit” value worked out at 74%.
